This passage reports Activity results from ChEMBL document CHEMBL4325908, “Ligand-based design, synthesis and biological evaluation of xanthine derivatives as LSD1/KDM1A inhibitors” (Eur J Med Chem, 2019).

For this experiment, the system named is MGC-803. As to the kind of experiment: Antiproliferative activity against human MGC803 cells after 72 hrs by MTT assay. The format is functional, cell-based. On the technique in general: Tetrazolium dyes change colour on reduction, which living cells bring about.

Consider `CCCn1c(SCc2cccc(C)c2)nc2c1c(=O)[nH]c(=O)n2C`, for which the Activity entry was “Dose-dependent effect”.

Regarding `CCCn1c(SCc2ccc(F)cc2)nc2c1c(=O)[nH]c(=O)n2C`, the Activity entry was “Dose-dependent effect”.
